The values below are quoted from earlier work in PMC6004248 (Clinical cancer research : an official journal of the …, 2018).

For the data set, the system named is normal human epidermal keratinocytes. Conditions: in vitro; cited from earlier work.

For `C[C@@H](Oc1cc(-c2cnn(C3CCNCC3)c2)cnc1N)c1c(Cl)ccc(F)c1Cl` [crizotinib], the “effect on growth of normal human epidermal keratinocytes” value was “inhibits growth”.
